These results are taken from BindingDB's records for PubMed 2795135 (Stanford University, 1989).

Sequences of proteins named here, by UniProt entry; tags and fusion partners are left off.
UniProt Q8MI09, whole entry: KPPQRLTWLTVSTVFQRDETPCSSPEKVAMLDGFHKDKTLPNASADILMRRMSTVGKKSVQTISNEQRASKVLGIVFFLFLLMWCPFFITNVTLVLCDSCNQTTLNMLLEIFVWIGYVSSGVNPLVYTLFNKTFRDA
UniProt P14842, whole entry: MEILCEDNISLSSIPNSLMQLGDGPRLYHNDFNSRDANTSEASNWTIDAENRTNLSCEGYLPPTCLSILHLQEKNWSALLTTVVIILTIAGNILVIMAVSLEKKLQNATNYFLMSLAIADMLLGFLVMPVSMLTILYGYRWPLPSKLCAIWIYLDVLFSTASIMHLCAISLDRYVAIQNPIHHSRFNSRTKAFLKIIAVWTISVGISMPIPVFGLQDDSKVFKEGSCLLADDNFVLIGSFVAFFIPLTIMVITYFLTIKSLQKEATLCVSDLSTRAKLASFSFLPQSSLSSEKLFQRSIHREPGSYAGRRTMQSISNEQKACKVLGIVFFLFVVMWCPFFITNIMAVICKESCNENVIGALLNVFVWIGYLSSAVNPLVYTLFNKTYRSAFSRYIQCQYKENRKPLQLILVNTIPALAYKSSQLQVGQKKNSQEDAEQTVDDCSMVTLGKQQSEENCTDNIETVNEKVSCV

The term Ki denotes a measure of affinity in units of concentration, obtained from inhibition or displacement.

The target in assay [1] is 5-hydroxytryptamine receptor 2B (Bos taurus, UniProt Q8MI09).
Assay [2] addresses 5-hydroxytryptamine receptor 2A (Rattus norvegicus, UniProt P14842).

With `CN1C[C@H](CNC(=O)OCc2ccccc2)C[C@@H]2c3cccc4c3c(cn4C)C[C@H]21` [METERGOLINE], in assay [1], the affinity, expressed as Ki, was 2.3 nM.
On to `CCc1cc(OC)c(CC(C)N)cc1OC` (configuration not stated), for which, in assay [2], the inhibitory constant (Ki) was 0.54 nM.
